Experiments:
Parameters in all cases: species or system nude mice
HUH7 tumor xenografts = assay: In vivo efficacy, HUH7 hepatocellular carcinoma xenograft; settings: HUH7, among the three models
HEP3B tumor xenografts = assay: In vivo efficacy, HEP3B hepatocellular carcinoma xenograft; settings: among the three models
JHH7 tumor xenografts = assay: In vivo efficacy, JHH7 hepatocellular carcinoma xenograft; settings: JHH7, among the three models

Compound: C=CC(=O)Nc1cc(N2CCN(CC)CC2)ccc1Nc1cc(N(C)C(=O)Nc2c(Cl)c(OC)cc(OC)c2Cl)ncn1 [Example 108, N-(2-(6-(3-(2,6-Dichloro-3,5-dimethoxyphenyl)-1-methylureido)pyrimidin-4-ylamino)-5-(4-ethylpiperazin-1-yl)phenyl)acrylamide]
- sensitivity of the xenograft model to the compound (HUH7 tumor xenografts): intermediate sensitivity
- sensitivity of the xenograft model to the compound (HEP3B tumor xenografts): most sensitive
- sensitivity of the xenograft model to the compound (JHH7 tumor xenografts): least sensitive
